Measurements taken from ChEMBL document CHEMBL3351908, “Alpha-ethyltryptamines as dual dopamine-serotonin releasers” (2014).

Chains of the proteins cited; added tags and fusions are not shown. Residues count along the entry.
UniProt Q9WTR4, 1-597: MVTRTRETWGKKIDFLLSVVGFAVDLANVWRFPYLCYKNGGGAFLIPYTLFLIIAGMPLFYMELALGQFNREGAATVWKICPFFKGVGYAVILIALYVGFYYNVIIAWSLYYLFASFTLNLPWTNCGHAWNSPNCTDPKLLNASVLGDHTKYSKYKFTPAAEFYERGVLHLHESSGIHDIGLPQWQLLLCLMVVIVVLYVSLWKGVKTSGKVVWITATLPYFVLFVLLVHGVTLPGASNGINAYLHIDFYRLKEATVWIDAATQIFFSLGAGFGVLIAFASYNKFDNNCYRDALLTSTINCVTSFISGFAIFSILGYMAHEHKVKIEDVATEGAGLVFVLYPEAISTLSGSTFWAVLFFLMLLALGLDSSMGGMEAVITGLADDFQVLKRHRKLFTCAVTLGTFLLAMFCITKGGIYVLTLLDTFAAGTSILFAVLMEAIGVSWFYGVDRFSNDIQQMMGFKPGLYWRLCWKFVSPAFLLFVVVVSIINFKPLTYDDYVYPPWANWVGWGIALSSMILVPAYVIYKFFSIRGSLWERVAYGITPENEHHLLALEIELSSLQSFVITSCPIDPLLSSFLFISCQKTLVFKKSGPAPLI
UniProt P23977, whole entry, looked up: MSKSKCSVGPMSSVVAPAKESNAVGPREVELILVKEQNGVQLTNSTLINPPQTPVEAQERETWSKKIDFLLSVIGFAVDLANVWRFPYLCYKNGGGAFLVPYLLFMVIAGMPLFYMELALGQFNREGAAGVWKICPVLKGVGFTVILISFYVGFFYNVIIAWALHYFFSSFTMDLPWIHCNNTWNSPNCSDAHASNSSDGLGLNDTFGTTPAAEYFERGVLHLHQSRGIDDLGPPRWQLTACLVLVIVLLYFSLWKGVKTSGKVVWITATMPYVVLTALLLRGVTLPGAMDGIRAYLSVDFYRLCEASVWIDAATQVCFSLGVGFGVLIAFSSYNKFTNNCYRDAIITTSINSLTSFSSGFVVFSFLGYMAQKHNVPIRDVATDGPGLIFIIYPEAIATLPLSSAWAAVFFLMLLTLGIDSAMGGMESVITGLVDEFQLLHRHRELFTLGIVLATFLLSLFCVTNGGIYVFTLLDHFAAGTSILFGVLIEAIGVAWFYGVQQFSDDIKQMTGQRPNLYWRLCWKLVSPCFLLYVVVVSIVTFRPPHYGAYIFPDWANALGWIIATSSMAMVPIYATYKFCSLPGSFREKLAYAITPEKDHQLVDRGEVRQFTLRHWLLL
UniProt P28223, whole entry, looked up: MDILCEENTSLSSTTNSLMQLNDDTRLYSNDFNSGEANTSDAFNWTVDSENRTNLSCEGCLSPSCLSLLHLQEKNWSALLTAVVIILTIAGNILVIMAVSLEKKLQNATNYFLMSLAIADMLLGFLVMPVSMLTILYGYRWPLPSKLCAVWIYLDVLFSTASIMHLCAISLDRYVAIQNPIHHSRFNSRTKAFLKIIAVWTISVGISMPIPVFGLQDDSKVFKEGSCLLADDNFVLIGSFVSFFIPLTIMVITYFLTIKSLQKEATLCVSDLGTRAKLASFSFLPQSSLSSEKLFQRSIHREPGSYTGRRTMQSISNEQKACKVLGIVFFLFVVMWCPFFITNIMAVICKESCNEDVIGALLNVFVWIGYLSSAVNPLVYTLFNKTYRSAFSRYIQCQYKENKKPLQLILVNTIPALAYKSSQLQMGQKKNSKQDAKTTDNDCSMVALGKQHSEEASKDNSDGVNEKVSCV

Assays:
[1] = biological target: T1, Norepinephrine transporter (Rattus norvegicus, UniProt Q9WTR4); assay: Induction of NET-mediated norepinephrine release in rat brain synaptosomes by [3H]NE release assay
[2] = biological target: T1, Norepinephrine transporter; assay: Inhibition of NET-mediated norepinephrine release in rat brain synaptosomes by [3H]NE release assay
[3] = biological target: Sodium-dependent dopamine transporter (Rattus norvegicus, UniProt P23977); assay: Induction of DAT-mediated dopamine release in rat brain synaptosomes by [3H]DA release assay
[4] = biological target: 5-hydroxytryptamine receptor 2A (Homo sapiens, UniProt P28223); assay: Agonist activity at 5HT2A receptor (unknown origin) by cell based calcium mobilization assay

Compound | EC50 [1] | further results
CC(N)Cc1c[nH]c2ccccc12 (stereo not drawn) | 112 nM | 
COc1cccc2c(CCN)c[nH]c12 | 5600 nM | 
CCC(N)Cc1c[nH]c2ccccc12 (stereo not drawn) | 640 nM | 
CC(N)Cc1c[nH]c2ccc(F)cc12 (stereo not drawn) | 78 nM | 
CCC(N)Cc1c[nH]c2ccc(F)cc12 (stereo not drawn) | 5330 nM | 
COc1ccc2[nH]cc(CCN)c2c1 | > 10000 nM | 
CCNCCc1c[nH]c2ccccc12 |  | IC50 [2]: 3860 nM
NCCc1c[nH]c2cc(F)ccc12 | 1570 nM | 
COc1cccc2[nH]cc(CCN)c12 | > 10000 nM | 
NCCc1c[nH]c2ccc(F)cc12 | 464 nM | 
CC[C@@H](N)Cc1c[nH]c2ccccc12 | 592 nM | EC50 [3]: 57.6 nM
NCCc1c[nH]c2ccccc12 | 716 nM | 
COc1ccc2c(CCN)c[nH]c2c1 | 465 nM | 
CC[C@H](N)Cc1c[nH]c2ccccc12 | 3670 nM | EC50 [4]: Not Active
NCCc1c[nH]c2c(Cl)cccc12 | 656 nM | 
NCCc1c[nH]c2ccc(Cl)cc12 | > 10000 nM | 
CCC(N)Cc1c[nH]c2ccc(Cl)cc12 (stereo not drawn) | > 10000 nM | 
NCCc1c[nH]c2cccc(F)c12 | 1120 nM | 
Cn1cc(CCN)c2ccccc21 | > 10000 nM | 
CC(N)Cc1c[nH]c2ccc(Cl)cc12 (stereo not drawn) | 3430 nM | EC50 [3]: 54.3 nM
Cc1ccc2c(CCN)c[nH]c2c1 | > 10000 nM | 
Cc1ccc2[nH]cc(CCN)c2c1 | > 10000 nM | 
Cc1cccc2c(CCN)c[nH]c12 | > 10000 nM | 
CNCCc1c[nH]c2ccccc12 | 733 nM | 
NCCc1c[nH]c2ccc(Br)cc12 | > 10000 nM | 
